In patent US6649639B2, “Antipicornaviral compounds, compositions containing them, and methods for their use” (priority 1997, dated 2003) one finds CC50 data, which are given here for one substance.

The series has as its system HI-HeLa cells. The series can be described thus: Cytotoxicity (CC50) in mock-infected HI-HeLa cells, antirhinoviral assay. The class given is cell-based.

Turning to “Ethyl-3-(CBZ-L-LeuΨ[COCH2]-D/L-Phe-L-Gln)-E-Propenoate [1 + 9(˜1:1)]”, the CC50 (usually the concentration giving 50% cytotoxicity) was over 320 µM.
